Test results: PMC9988221 (Journal of Clinical Psychopharmacology, 2023)
Read-outs that look alike come from different tables or passages of the source. Marks after values point to notes of the source that are not given here.

Format: in vivo, human
[1] = +BI 425809 25 mg at steady state
[2] = probe drug + steady-state BI 425809 25 mg vs probe drug only
[3] = probe drug alone (cocktail or digoxin alone)

COc1ccc2[nH]c([S+]([O-])Cc3ncc(C)c(OC)c3C)nc2c1 (stereo not drawn) [Omeprazole, omeprazole]
t1/2, arithmetic mean (SD) [1]: 1.0 (0.6) h | AUC0–tz, Adjusted gMean Ratio (90% CI) [2]: 88.9 (81.0–97.6) % | Cmax, Adjusted gMean Ratio (90% CI) [2]: 102.2 (93.6–111.7) % | t1/2, arithmetic mean (SD) [3]: 1.0 (0.7) h

CC(=O)C[C@H](c1ccccc1)c1c(O)c2ccccc2oc1=O [R-warfarin]
Cmax, arithmetic mean (SD) [1]: 558.0 (166.0) ng/mL | Cmax, arithmetic mean (SD) [3]: 537.0 (121.0)* ng/mL

CC(=O)C[C@@H](c1ccccc1)c1c(O)c2ccccc2oc1=O [S-warfarin]
Cmax, arithmetic mean (SD) [1]: 572.0 (174.0) ng/mL | Cmax, gMean (Probe Drug Only, healthy males, plasma): 534.5 ng/mL | Cmax, arithmetic mean (SD) [3]: 547.0 (126.0)* ng/mL
